# Binding of CDR-mutated scFvs to a peptide of the spike HR2 region

Target peptide (SARS-CoV-2 spike, HR2 region): PDVDLGDISGINAS

Parent scFv Ab-14: VH joined to VL by a 15-residue (Gly4Ser)3 linker. Changes lie in the heavy chain CDRs alone.
VH: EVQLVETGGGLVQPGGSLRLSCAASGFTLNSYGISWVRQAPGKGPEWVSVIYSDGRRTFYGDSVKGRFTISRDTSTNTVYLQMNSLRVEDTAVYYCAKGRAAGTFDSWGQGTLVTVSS
VL: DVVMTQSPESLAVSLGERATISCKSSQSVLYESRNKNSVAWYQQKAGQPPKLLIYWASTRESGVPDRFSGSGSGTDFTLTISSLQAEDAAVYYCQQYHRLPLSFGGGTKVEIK

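Library AAYL49 holds single substitutions and randomly drawn double and triple substitutions in the CDRs. The assay is AlphaSeq: two haploid yeast populations carry antibody and antigen on their surface. The frequency of each diploid, read from paired DNA barcodes, reflects how well the two displayed proteins bind. A regression on co-assayed BCL2-family reference pairs converts the normalised counts of each replicate to an apparent Kd. The assay was run in three technical replicates.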

Each variant is given by its three heavy chain CDRs, as the data file delimits them; those of the parent are GFTLNSYGIS, VIYSDGRRTFYGDSVK, GRAAGTFDS. Numbers give log10(Kd / nM), so 0 is 1 nM and 3 is 1 µM. Smaller is tighter. An entry "ND" has no value in the source: the pair was not observed among the diploids in that replicate. This suggests poor binding but is not conclusive. Parent in this assay: reference entry 0.65, copy in this library 4.11 (one replicate of three). Three control strains display no target. For library AAYL49, 15% of the pairings with them gave a signal, with a median of 4.06 and one signal in twenty below 2.83, so weak values seen in few replicates may be background. For each scFv, signals with the empty controls are counted beside the result, with their mean in brackets.

CDR-H1	CDR-H2	CDR-H3	log10 Kd (nM) by replicate	signal with controls
GFTLNSYYIS	FIYSDGRRTFYGDSVK	GAAAGTFDS	ND ND ND	5 of 9 (5.16)
GFTLWSYGIS	VRYSDGRRTFYGDSVK	GRAAGTFDS	ND ND 4.66	1 of 9 (4.89)
GFTLNSYGIS	VIYSDGRRTCYGDSWK	GRAAFTFDS	ND ND ND	0 of 9
GFWLNSYGIS	VIISDGRRTFYGDSVK	GRAAGTFDS	ND 4.14 6.10	5 of 9 (4.41)
GFTTNSYGGS	VIYSDGRRTFRGDSVK	GRAAGTFDS	ND 4.41 4.64	2 of 9 (3.82)
GFTLNSYGIS	VIYSDGRATFYGDSVK	YRAWGTFDS	ND ND ND	1 of 9 (3.45)
GFTLNSYGIS	VEYSDGRRTFYGDSVW	FRAAGTFDS	ND ND ND	0 of 9
GFTLNSYGIS	VIYSDGKRTFRGCSVK	GRAAGTFDS	ND ND ND	2 of 9 (2.71)
GFTLNSYGIS	VFYSDGRRTFYGDGVK	GRQAGTFDS	ND ND ND	0 of 9
GFTLNSSKIS	VDYSDGRRTFYGDSVK	GRAAGTFDS	ND ND ND	0 of 9
GFTLNSYGIS	VIYSAGRRTFYGDRNK	GRAAGTFDS	ND ND ND	1 of 9 (3.47)
GNTLNSYGIS	VIYSDGRRTNYGDSVK	GRAIGTFDS	6.18 ND 4.44	2 of 9 (3.52)
GFTLNSYGIT	VIYSDGRRTFQGDSVK	GTAAGTFDS	ND 4.50 3.87	9 of 9 (4.44)
GFTLNSYGIS	VIYSDGRRTFYYDTVK	GRAEGTFDS	ND ND ND	0 of 9
GFTTNSYGIS	VIYSDGRRTFYGDPVK	GRSAGTFDS	3.14 1.96 ND	0 of 9
GFTLNSYGIS	VIYSDGRRTFVGDSVK	GRACGTFDN	ND 4.33 ND	2 of 9 (2.47)
GFTLNSYGIS	VIYSDGRRTFYNDSVK	AQAAGTFDS	4.52 3.86 ND	3 of 9 (3.74)
GFPLNSYGIS	VIYSDKRRTFYGDSVK	GRAKGTFDS	6.58 ND 4.92	6 of 9 (4.79)
GNTLNSYGIS	VIYSDGRRTFYADSVK	GRAAPTFDS	4.60 4.08 ND	6 of 9 (5.09)
GFTLNSYGIA	VEYSLGRRTFYGDSVK	GRAAGTFDS	ND 3.18 ND	1 of 9 (3.49)
GFTLNSYGIS	AIYSDGRRDFYGDSVK	GRAAGWFDS	ND 3.11 ND	1 of 9 (4.80)
GFTLNSFGIS	VIYSDNRRTFYGDSVK	GRAAGTFDS	ND ND ND	0 of 9
GFTLNSYGIS	VVYSDGRRTFYGDSVK	GRGAGTFFS	ND ND ND	3 of 9 (4.36)
GFTLNSWGIS	VIYSDGKRTFYGDSVK	GRAAGTFDH	4.56 4.13 ND	4 of 9 (3.64)
GFTLNSYGIS	VIYSDGRRTFYGPSVK	GRALGTFDM	2.45 2.48 2.67	3 of 9 (4.57)
GFTLNSYGIS	CIYSDQRRSFYGDSVK	GRAAGTFDS	ND ND 4.42	1 of 9 (4.15)
YFTLNSYGIS	VIYSDGRRTFYGDSVN	GRAHGTFDS	ND ND ND	0 of 9
GFTLNSYGIR	VIYSDGRRGFYGDSVM	GRAAGTFDS	ND ND 4.24	5 of 9 (3.98)
GFTLNSYGIS	VIYSDHRRTFYGDSEK	KRAAGTFDS	ND ND ND	0 of 9
GFTQNSYGIS	VIYSDHRRTFYGDCVK	GRAAGTFDS	ND ND ND	1 of 9 (3.52)
GFNLNSYEIS	FIYSDGRRTFYGDSVK	GRAAGTFDS	ND ND ND	0 of 9
GFTLNSYGIS	VINSDGRRTFAGDSVI	GRAAGTFDS	ND ND 4.36	1 of 9 (3.66)
GFTLPMYGIS	VIYSDGRRTFYGDSVK	GRAAGTFDS	1.82 1.97 2.02	0 of 9
GFTLNSYGIS	VIYSDGRRTFYGCSVK	GRAAGTQTS	ND ND ND	1 of 9 (3.52)
GFTPNSWGIS	VIYVDGRRTFYGDSVK	GRAAGTFDS	ND ND ND	0 of 9
GFTLNSYGIV	VIYSDGRRTFYGDSRK	GRAAGTFDL	4.31 ND ND	5 of 9 (4.69)
GFPLNSYGIS	VIYSDPRRTDYGDSVK	GRAAGTFDS	4.02 ND 3.78	1 of 9 (4.03)

The first 4 variants above that were never detected:

CDR-H1	CDR-H2	CDR-H3	log10 Kd (nM) by replicate	signal with controls
GFTLNSYYIS	FIYSDGRRTFYGDSVK	GAAAGTFDS	ND ND ND	5 of 9 (5.16)
GFTLNSYGIS	VIYSDGRRTCYGDSWK	GRAAFTFDS	ND ND ND	0 of 9
GFTLNSYGIS	VIYSDGRATFYGDSVK	YRAWGTFDS	ND ND ND	1 of 9 (3.45)
GFTLNSYGIS	VEYSDGRRTFYGDSVW	FRAAGTFDS	ND ND ND	0 of 9

Source: Engelhart et al. 2022 (doi:10.1038/s41597-022-01779-4), MIT Lincoln Laboratory and A-Alpha Bio; data file from the FLAb repository.